The values below come from patent publication US10669268B2, “Bicyclic derivatives” (Hoffmann-La Roche Inc., priority 2012, dated 2020).

SMILES strings stand for the structures.

The assay deals with ATX (human His-tagged) (Homo sapiens (Human), UniProt Q13822). Briefly: Human ATX enzyme inhibition assay (fluorescence quenching, MR121 substrate). The class given is biochemical. The settings on record: 30 nM ATX, 1 μM MR121 substrate, 30° C., pH 8.0.
`O=C(CCc1ccc(OC(F)(F)F)cc1)N1C[C@@H]2CN(C(=O)N3CCc4[nH]nnc4C3)C[C@H]2C1`: the IC50 worked out at 7 nM. The same measure for `O=C(/C=C/c1ccc(OC(F)(F)F)cc1)N1C[C@@H]2CN(C(=O)N3CCc4[nH]nnc4C3)C[C@@H]2C1`: 39 nM. Turning to `O=C(/C=C/c1ccc(OC(F)(F)F)cc1)N1C[C@@H]2CN(C(=O)N3CCc4[nH]nnc4C3)C[C@H]2C1`, the IC50 was 3 nM. In the case of `O=C(CCc1ccc(OC(F)(F)F)cc1)N1C[C@@H]2CN(C(=O)[C@@H]3CCc4[nH]nnc4C3)C[C@H]2C1`, the IC50 was 7 nM.
